{"source": "patent US11058744B2", "about": "“Composition for treating prostate cancer” (GemVax & KAEL Co., Ltd., priority 2013, dated 2021)", "key": {"LNCaP cell line [1]": {"test_system": "LNCaP cell line", "test": "Transwell migration assay on LNCaP cell line", "format": "cell-based, human", "conditions": "10 μM and 30 μM", "method": "The effects of Pep1 on cancer cell migration were evaluated by trans-well assay.\nThe cancer cell migration was evaluated by using the reagents and materials and the cell line incubation method which are described in connection with Example 1. A migration assay method used for this experiment is as follows.\nThe LNCaP cell line was incubated on a 6-well plate overnight, and then treated with various concentrations of Pep1 (0, 1, 10, 30 μM) and incubated for 24 hours. Thereafter, the resultant LNCaP cell line was seeded at the cell population of 1×10^4/well on a trans-well plate. Three hours after, the upper compartment of each well was removed, and cells that had migrated downwards were immobilized, stained, and quantified.\nA separate experiment was further performed to identify cell migration when Pep1 was co-administered with docetaxel. The LNCaP cell line was incubated on a 6-well plate overnight, and then, treated with various concentrations of Pep1(0, 1, 3, 10, and 30 μM) and incubated for 24 hours. Additionally, the cell line was incubated in a growth medium containing docetaxel (3 nM) for 48 hours, and then, seeded on a trans-well plate at a cell population of 1×10^4/well. Three hours after, the upper compartment of each well was removed, and cells that had migrated downwards were immobilized, stained, and quantified. […]"}, "[2]": {"test_system": "MMP2 (Matrix Metalloproteinase-2)", "test": "MMP2 mRNA expression in LNCaP xenograft tumor tissue (RT-PCR)", "format": "in vivo, BALB/c-nu mice", "conditions": "10 mg/kg Pep1, compared to control (vehicle) and positive control (Leuprolide 0.1 mg/kg); FIG. 16", "method": "(§1) Relative expression levels in tissues xenografted with LNCaP were evaluated to identify the expression of MMP9 (Matrix Metalloproteinase-9) and MMP2 (Matrix Metalloproteinase-2), which are mRNA markers and show cancer cell migration (see FIGS. 15 and 16).\n(§2) Test groups 14) to 16) were grafted with LNCaP cell. This experiment was performed by using the reagents and materials and the cell line incubation method which are described in connection with Example 1.\n(§3) Test animals: 3 test groups were grafted with the LNCaP cell. The test groups consisted of 5-week BALB/c-nu mice (obtained from Central Lab. Animal Inc., Seoul, Korea). For each group, 6 mice and extra 5 mice were stabilized for 1 week. […]\n(§4) From tumor tissues harvested from the 3 test groups, RNA was extracted, and RT-PCR was performed thereon by using primers of MMP9 and MMP2. Each sample obtained by RT-PCR amplification was allowed to flow through 2D gel by electrophoresis, and then, fluorescence-stained to measure the level of expression. […]\n(§5) The relative expression level of MMP9 was evaluated with reference to the expression level of the control (vehicle) being set to 2 (see FIG. 15), and the relative expression level of MMP2 was evaluated with reference to the expression level of the control (vehicle) being set to 38 (see FIG. 16)."}, "LNCaP cell xenograft": {"test_system": "LNCaP cell xenograft", "test": "Tumor volume in LNCaP cell xenograft model", "format": "in vivo, BALB/c-nu mice", "conditions": "for cancer growth inhibition (tumor volume), co-administration with docetaxel: FIG. 5; for cancer growth inhibition (tumor volume): subcutaneous every day, 20 days, FIG. 4", "method": "Test groups 1) to 7) were grafted with the LNCaP cell. This experiment was performed by using the reagents and materials and the cell line incubation method which are described in connection with Example 1.\n(§6) Test animals: 7 test groups were grafted with the LNCaP cell. The test groups consisted of 5-week BALB/c-nu mice (obtained from Central Lab. Animal Inc., Seoul, Korea). For each group, 6 mice and extra 5 mice were stabilized for 1 week. Each mouse was grafted at its side with the LNCaP cell having the cell population of 1*10^7 cells suspended in 100 μl PBS, and observed for 2 weeks. […] The 7 test groups, each consisting of the remaining 6 mice, were treated according to the conditions as below for 20 days. Tumor volume was measured by using calipers according to the following: [width^2×length×0.5 cm^3]\nFollowing the grafting, Pep1 and leuprolide acetate (positive control) were administered to the 6 test groups by subcutaneous injection every day. • 1) LNCaP-grafted control (vehicle) • 2) LNCaP graft+0.01 mg/kg of Pep1 • 3) LNCaP graft+0.1 mg/kg of Pep1 • 4) LNCaP graft+1 mg/kg of Pep1 • 5) LNCaP graft+10 mg/kg of Pep1 • 6) LNCaP graft+0.1 mg/kg of leuprolide acetate • 7) LNCaP graft+0.1 mg/kg of leuprolide acetate+0.1 mg/kg of Pep1\nTest groups 8) to 13) were grafted with the LNCaP cell. This experiment was performed by using the reagents and materials and the cell line incubation method which are described in connection with Example 1.\nas §6, with “animals: 6” for “animals: 7”, “following: [width×length×0.5” for “following: [width^2×length×0.5”\nFollowing the grafting, Pep1 and docetaxel were administered to the 5 test groups • 8) LNCaP-grafted control • 9) LNCaP graft+20 mg/kg of docetaxel (once a week, intraperitoneal administration) • 10) LNCaP graft+30 mg/kg of Pep1 (three times a week, subcutaneous administration) • 11) LNCaP graft+3 mg/kg of Pep1+20 mg/kg of docetaxel • 12) LNCaP graft+10 mg/kg of Pep1+20 mg/kg of docetaxel • 13) LNCaP graft+30 mg/kg of Pep1+20 mg/kg of docetaxel\nThen, the amounts of water and diet, the tumor volume (a shorter diameter, a longer diameter), tumor weight/body weight, thigh muscle weight were measured. In addition, cancer cell samples were prepared, and PCNA (cell growth marker)/TUNEL (apoptosis marker) staining was performed.\n(§7) To analyze test results, averages of test groups were verified by performing student's t-test. The reference of the statistical significance was set at p<0.05(*) or p<0.01(**)."}, "LNCaP cell line [3]": {"test_system": "LNCaP cell line", "test": "MTT assay, cancer cell growth inhibition in LNCaP cell line", "format": "cell-based, human", "method": "To identify effects of Pep1 on prostate cancer, the LNCaP cell line was subjected to MTT assay. The cancer cells growth inhibition effects were identified by using the reagents and materials and the cell line incubation method which are described in connection with Example 1. The MTT assay was performed as follows:\nThe LNCaP cell line having a certain cell population (3×10^3/well) incubated in a 96 well plate (SPL) was incubated in a growth medium containing Pep1 (0, 0.1, 0.3, 1, 3, and 10 μM) and docetaxel (3 nM) for 72 hours, and MTT reagent was added in an amount of 40 μl to each well. After four hours of reaction, the cells were dissolved in DMSO, and an absorbance thereof was measured at a wavelength of 570 nm.\nSeparately, the same experiment as described above was performed, except that the incubation time and concentration of Pep1 varied. The LNCaP cell line having a certain cell population (3×10^3/well) incubated in a 96 well plate (SPL) was cultured in a growth medium containing Pep1(0, 0.01, 1, 10, and 30 μM) for 96 hours, and then, the MTT reagent was added in an amount of 40 μl to each well. After four hours of reaction, the cells were dissolved in DMSO, and an absorbance thereof was measured at a wavelength of 570 nm.\nas §7"}, "[4]": {"test": "Body weight of LNCaP cell-xenografted model", "conditions": "FIG. 6"}, "[5]": {"test_system": "MMP9 (Matrix Metalloproteinase-9)", "test": "MMP9 mRNA expression in LNCaP xenograft tumor tissue (RT-PCR)", "format": "in vivo, BALB/c-nu mice", "conditions": "10 mg/kg Pep1, compared to control (vehicle) and positive control (Leuprolide 0.1 mg/kg); FIG. 15", "method": "as §1, §2, §3, §4, §5"}}, "data": [{"smiles": "CC[C@H](C)[C@H](NC(=O)[C@H](Cc1ccccc1)NC(=O)[C@H](CCCNC(=N)N)NC(=O)[C@H](CC(C)C)NC(=O)[C@H](CCCNC(=N)N)NC(=O)[C@H](CO)NC(=O)[C@@H](NC(=O)[C@H](CC(C)C)NC(=O)[C@H](CC(C)C)NC(=O)[C@H](C)NC(=O)[C@@H]1CCCN1C(=O)[C@H](CCCNC(=N)N)NC(=O)[C@H](C)NC(=O)[C@@H](N)CCC(=O)O)[C@@H](C)O)C(=O)N1CCC[C@H]1C(=O)N[C@@H](CCCCN)C(=O)O", "note": "[Pep1, EARPALLTSRLRFIPK]", "values": [{"measurement": "cancer cell migration (migrated cell number)", "setting": "LNCaP cell line [1]; Pep1 1 μM, 24 hours, vs Pep1-free medium, FIGS. 7 and 8", "result": "the cancer cell migration was statistically significantly inhibited"}, {"measurement": "cancer cell migration (migrated cell number) with docetaxel", "setting": "LNCaP cell line [1]; medium containing docetaxel (3 nM) treated with Pep1 3 μM, FIGS. 9 to 14", "result": "the cancer cell migration was statistically significantly inhibited"}, {"measurement": "relative expression level of MMP2 mRNA in tumor tissues", "setting": "[2]", "result": "low expression levels"}, {"measurement": "inhibition of volume of cancer cells, co-administration with leuprolide acetate", "setting": "LNCaP cell xenograft; 0.1 mg/kg leuprolide acetate + 0.1 mg/kg Pep1 (group 7) vs leuprolide acetate alone (group 6)", "result": "produces effects of inhibiting the volume of cancer cells"}, {"measurement": "cancer growth inhibition (tumor volume), co-administration with docetaxel", "setting": "LNCaP cell xenograft; 10 mg/kg Pep1 + 20 mg/kg docetaxel, final evaluation phase", "result": "distinct cancer growth inhibition effects were obtained"}, {"measurement": "cancer growth inhibition (tumor volume)", "setting": "LNCaP cell xenograft; Pep1 0.01 mg/kg and 0.1 mg/kg", "result": "significant cancer growth inhibition effects were not obtained"}, {"measurement": "cancer growth inhibition (tumor volume)", "setting": "LNCaP cell xenograft; Pep1 1 mg/kg and 10 mg/kg, compared to leuprolide acetate 0.1 mg/kg positive control", "result": "high inhibition effects were obtained"}, {"measurement": "cancer growth inhibition (tumor volume), co-administration with docetaxel", "setting": "LNCaP cell xenograft; Pep1 co-administered with 20 mg/kg docetaxel", "result": "significant inhibition effects was obtained"}, {"measurement": "cell growth inhibition (MTT) with docetaxel", "setting": "LNCaP cell line [3]; 3 nM docetaxel and Pep1 3 μM, 10 μM or 30 μM vs 0, 0.1, 0.3 or 1 μM, FIG. 3", "result": "statistically significant cell growth inhibition effects"}, {"measurement": "cell growth inhibition (MTT), repeated experiment", "setting": "LNCaP cell line [3]; Pep1 0, 0.01, 1, 10, 30 μM, 96 hours, FIG. 2", "result": "inhibited cell growth in a concentration-dependent manner"}, {"measurement": "cell growth inhibition (MTT)", "setting": "LNCaP cell line [3]; Pep1 10 μM vs 0, 0.1, 0.3, 1 or 3 μM, 72 hours, FIG. 1", "result": "statistically significant cell growth inhibition effects"}, {"measurement": "cell growth inhibition (MTT) with docetaxel, concentration dependence", "setting": "LNCaP cell line [3]; Pep1 used together with 3 nM docetaxel", "result": "concentration-dependent cell growth inhibition effects"}, {"measurement": "body weight", "setting": "[4]; 0.1 mg/kg leuprolide acetate together with 0.1 mg/kg Pep1 (group 7) vs vehicle control", "result": "no significant difference in the body weight"}, {"measurement": "body weight", "setting": "[4]; Pep1 0.01-10 mg/kg (groups 2 to 5) vs vehicle control", "result": "no significant difference in the body weight"}, {"measurement": "relative expression level of MMP9 mRNA in tumor tissues", "setting": "[5]", "result": "low expression levels"}]}]}
